{"source": "patent US8962880B2", "about": "“Amorphous asiatic tromethamine salt and preparation method thereof” (Shanghai Institute of Pharmaceutical Industry, priority 2011, dated 2015)", "conditions": "in vivo, 50 mg"}
{"smiles": "C[C@H]1[C@H](C)CC[C@]2(C(=O)O)CC[C@]3(C)C(=CC[C@@H]4[C@@]5(C)C[C@@H](O)[C@H](O)[C@@](C)(CO)[C@@H]5CC[C@]43C)[C@H]12.NC(CO)(CO)CO", "note": "[amorphous asiatic tromethamine salt]", "values": [{"measurement": "bioavailability", "result": "ca. 10.4%"}]}
